# In patent EP0354046A2, “Herbicidal method using bromoxynil” (MAY & BAKER LIMITED, priority 1988, dated 1990):
# System: maize var. Irla
# Assay: Glasshouse experiment 4, percentage phytotoxicity on crop after 11 days
# Conditions: Compound (74 or 99) 0 g/ha, Bromoxynil 35 g/ha
# Description: Agricultural surfactant ('Agral') was added to the spray dilutions to give 0.2%v/v concentration.
# After spraying the pots were arranged in randomised blocks in a glasshouse and water as necessary. After 11 days the plants were assessed for percentage phytotoxicity (reduction in green area compared with unsprayed plants (0 = no effect 100 = complete destruction).
# E = X + Y […] where E, X and Y are percentage phytotoxicity.
# The ED values were then used to plot an isobole for each mixture according to the method of P.M.L. Tammes op cit.
structure (smiles),measurement,value
"N#Cc1cc(Br)c(O)c(Br)c1 [Bromoxynil, 3,5-dibromo-4-hydroxybenzonitrile]",% crop phytotoxicity Maize (3-4 leaves),0%
